The numbers were not newly measured in patent publication US20250205375A1, “HER3 RADIOIMMUNOTHERAPY FOR THE TREATMENT OF SOLID CANCERS” (ACTINIUM PHARMACEUTICALS, INC., priority 2023, published 2025), which cites them from elsewhere.

By UniProt entry, the sequences of proteins in these tests, tags left out.
UniProt P09874, whole entry, species assumed: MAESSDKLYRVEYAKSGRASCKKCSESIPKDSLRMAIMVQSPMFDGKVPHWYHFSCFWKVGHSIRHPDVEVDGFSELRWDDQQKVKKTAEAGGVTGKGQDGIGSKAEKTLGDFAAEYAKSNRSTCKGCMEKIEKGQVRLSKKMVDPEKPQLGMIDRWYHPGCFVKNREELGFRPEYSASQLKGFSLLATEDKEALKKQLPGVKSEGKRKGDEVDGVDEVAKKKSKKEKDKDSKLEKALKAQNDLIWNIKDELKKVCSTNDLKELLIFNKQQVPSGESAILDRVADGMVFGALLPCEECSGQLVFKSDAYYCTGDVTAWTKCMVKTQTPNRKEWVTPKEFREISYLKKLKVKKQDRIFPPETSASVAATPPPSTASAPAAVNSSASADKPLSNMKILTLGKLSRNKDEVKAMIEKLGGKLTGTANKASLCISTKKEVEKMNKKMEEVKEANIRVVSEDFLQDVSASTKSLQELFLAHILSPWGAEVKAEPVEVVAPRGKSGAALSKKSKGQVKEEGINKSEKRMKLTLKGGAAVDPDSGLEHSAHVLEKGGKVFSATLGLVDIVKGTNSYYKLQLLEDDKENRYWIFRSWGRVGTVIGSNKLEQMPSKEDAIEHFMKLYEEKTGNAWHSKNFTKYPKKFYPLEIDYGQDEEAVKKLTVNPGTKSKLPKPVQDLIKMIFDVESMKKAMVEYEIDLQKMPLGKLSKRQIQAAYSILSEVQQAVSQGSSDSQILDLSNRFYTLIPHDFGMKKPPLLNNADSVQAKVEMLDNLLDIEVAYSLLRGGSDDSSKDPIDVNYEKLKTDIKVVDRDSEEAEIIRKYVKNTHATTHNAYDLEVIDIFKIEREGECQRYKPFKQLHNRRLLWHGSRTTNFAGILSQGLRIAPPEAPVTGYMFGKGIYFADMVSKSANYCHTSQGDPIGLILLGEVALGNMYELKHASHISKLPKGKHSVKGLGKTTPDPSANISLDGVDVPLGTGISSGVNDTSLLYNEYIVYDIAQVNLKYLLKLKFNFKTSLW

The target of the data set is PARP1 (Homo sapiens, UniProt P09874). Particulars: compared with veliparib; cited from earlier work.

As to `Cn1ncnc1[C@H]1c2n[nH]c(=O)c3cc(F)cc(c23)N[C@@H]1c1ccc(F)cc1` [talazoparib], the “trapping PARP1” value is recorded as “more effective”.
